Marks after values point to notes of the source that are not given here.

Experimental findings from article PMC10740061 (Food Chemistry: X, 2023) are described below.

The test system of the data set is Caco-2 monolayer. The data set can be described thus: Caco-2 monolayer transmembrane transport, apical to basolateral. The settings on record: for PappAtoB: 40 µM flavonoid, 6 h, A to B, mean ± SD (n = 3). Format: in vitro ADME, human.

For the substance Myricitrin, the PappAtoB was 6.25 ± 0.09^b × 10^-6 cm/s (No substrate), 5.55 ± 0.07^a × 10^-6 cm/s (RD (rice flour digested products) 400 µg/mL) and 10.82 ± 0.31^c × 10^-6 cm/s (WD (wheat flour digested products) 400 µg/mL). Further, the “change of apparent permeability coefficient (in words)” value is, setting by setting: (RD group vs no substrate) “decrease in the apparent permeability coefficient”; (WD group vs no substrate) “increase”. The “Increase in PappAtoB” value (RD vs no substrate) is on record as −0.11 and the “Increase in PappAtoB” value (WD vs no substrate) came out at 0.73.
